Read-outs that look alike come from different tables or passages of the source.
Tests used:
[1] = biological target: T1, KPC-2 (Klebsiella pneumoniae, UniProt Q9F663); assay: IC50, nitrocefin hydrolysis after 10-minute preincubation, KPC-2; format: biochemical
[2] = biological target: T2, KPC-3 (Klebsiella pneumoniae, UniProt Q9F663, H272Y); assay: IC50, nitrocefin hydrolysis after 10-minute preincubation, KPC-3; format: biochemical
[3] = biological target: T3, KPC-4 (Klebsiella pneumoniae, UniProt Q9F663, P103R/V239G); assay: IC50, nitrocefin hydrolysis after 10-minute preincubation, KPC-4; format: biochemical
[4] = biological target: T1, KPC-2; assay: biochemical
[5] = biological target: T2, KPC-3; assay: biochemical
[6] = biological target: T3, KPC-4; assay: biochemical
[7] = biological target: T1, KPC-2; settings: read-out: Kiapp; cited from earlier work

By UniProt entry, the sequences of proteins in these tests, tags left out. Residues count along the entry.
UniProt Q9F663, 25-293 limits assumed: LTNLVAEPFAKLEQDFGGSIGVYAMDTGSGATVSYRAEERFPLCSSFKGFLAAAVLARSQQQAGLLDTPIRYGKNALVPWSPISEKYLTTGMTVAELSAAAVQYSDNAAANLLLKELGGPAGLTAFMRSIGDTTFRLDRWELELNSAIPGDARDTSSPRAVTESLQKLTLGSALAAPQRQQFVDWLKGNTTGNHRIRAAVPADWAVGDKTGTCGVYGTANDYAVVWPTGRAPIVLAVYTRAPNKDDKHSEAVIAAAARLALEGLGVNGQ
UniProt Q9F663, 25-293 H272Y: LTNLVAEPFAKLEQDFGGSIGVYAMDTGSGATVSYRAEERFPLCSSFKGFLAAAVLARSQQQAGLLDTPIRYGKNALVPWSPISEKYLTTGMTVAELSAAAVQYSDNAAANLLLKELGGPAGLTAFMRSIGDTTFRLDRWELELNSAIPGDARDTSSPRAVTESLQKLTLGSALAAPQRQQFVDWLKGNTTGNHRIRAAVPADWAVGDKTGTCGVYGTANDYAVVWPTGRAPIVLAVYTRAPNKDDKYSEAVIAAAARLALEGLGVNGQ
UniProt Q9F663, 25-293 P103R/V239G: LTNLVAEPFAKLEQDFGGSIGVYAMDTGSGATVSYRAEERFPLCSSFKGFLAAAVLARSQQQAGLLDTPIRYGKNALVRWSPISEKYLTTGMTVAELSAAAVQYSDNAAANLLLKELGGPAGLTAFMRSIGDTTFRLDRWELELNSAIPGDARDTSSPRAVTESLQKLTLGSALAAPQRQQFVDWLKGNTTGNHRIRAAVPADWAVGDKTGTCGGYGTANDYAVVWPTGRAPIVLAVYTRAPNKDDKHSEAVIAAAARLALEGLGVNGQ

O=C(NC1CCNCC1)[C@@H]1CC[C@@H]2CN1C(=O)N2OS(=O)(=O)O [Relebactam, relebactam]
IC50 [1]: 230 nM
IC50 [2]: 260 nM
IC50 [3]: 910 nM
Ki [4]: 1200 nM
Ki [5]: 1500 nM
Ki [6]: 4800 nM
Ki [7]: 2300 nM

Reference: PMC6761529 (Antimicrobial Agents and Chemotherapy, 2019)
